These results are taken from ChEMBL document CHEMBL1129362 (J Med Chem, 1996).

Protein sequences, listed by entry. Tags and fused reporters are not part of them.
UniProt P32238, whole entry: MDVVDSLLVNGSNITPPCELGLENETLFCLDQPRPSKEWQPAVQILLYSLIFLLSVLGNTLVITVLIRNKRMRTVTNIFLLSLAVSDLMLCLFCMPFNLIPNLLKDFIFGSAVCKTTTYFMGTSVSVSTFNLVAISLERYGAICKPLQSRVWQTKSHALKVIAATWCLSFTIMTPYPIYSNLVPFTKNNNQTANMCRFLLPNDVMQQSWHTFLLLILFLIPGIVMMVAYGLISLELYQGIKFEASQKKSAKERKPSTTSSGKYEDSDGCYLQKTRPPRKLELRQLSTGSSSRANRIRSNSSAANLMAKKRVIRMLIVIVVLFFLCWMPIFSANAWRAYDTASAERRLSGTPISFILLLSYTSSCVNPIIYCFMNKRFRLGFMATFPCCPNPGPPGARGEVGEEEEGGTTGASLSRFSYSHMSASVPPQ

This assay has as its target Cholecystokinin receptor type A (Homo sapiens, UniProt P32238). The experiment in a line: Binding affinity against human Cholecystokinin type A receptor by displacement of [125I]CCK-8.

The compound `COc1ccc(N(C(=O)CN2C(=O)C(C)(Cc3c[nH]c4ccccc34)C(=O)N(c3ccccc3)c3ccccc32)C(C)C)cc1` (stereo unspecified) gave an IC50 of 8.32 nM.
